Assays:
[1] = system: purified CD4+ T cells; assay: CD4 T cell ELISA, IFN-γ secretion; format: cell-based, human
Procedure: PBMC and CD4 T cell ELISA. PBMCs and purified CD4+ T cells were left untreated, treated with IL-2 (1000 U/mL) or treated with the combination of IL-2 and anti-CD16 mAb (3 μg/ml), IL-2+anti-CD3/28 antibodies (25 μl/mL) or IL-2+sAJ2 (Cells:sAJ2 1:20). After an overnight treatment at 37° C., the supernatants were harvested and the levels of IFN-γ secretion were measured using ELISA (Tables 44-45).

[2] = system: NK cells; assay: NK Luminex, cytokine/chemokine/growth factor/ligands secretion; format: cell-based, human
Procedure: No overall differences in cytokine/chemokine/growth factor/ligands in sorted NK cells of patient activated with IL-2 or IL-2+antiCD16 or IL-2+sAJ2 when compared to healthy twin (Tables 55-58). NK Luminex. NK cells were left untreated, treated with IL-2 (1000 U/mL) or treated with the combination of IL-2 and anti-CD16 mAb (3 μg/ml), or IL-2+sAJ2 (Cells:sAJ2 1:20). After an overnight treatment at 37° C., the supernatants were harvested and the levels of cytokine/chemokine/growth factor/ligands secretion were measured using multiplex luminex assay (Millipore, MA) (Tables 55-58).
NK Luminex. NK cells were treated with IL-2 (1000 U/mL) or treated with the combination of IL-2 and anti-CD16 mAb (3 μg/ml). After an overnight treatment at 37° C., the supernatants were harvested and the levels of cytokine/chemokine/growth factor/ligands secretion were measured using multiplex luminex assay (Table 157).

[3] = H84 JC NK, overnight treatment, supernatant
[4] = H85 TC (healthy twin) NK supernatant
[5] = H85 TC NK, overnight treatment, supernatant
[6] = JC NK cells, overnight treatment, supernatant
[7] = TC NK cells, overnight treatment, supernatant
[8] = WO NK cells, overnight treatment, supernatant

## Recombinant human IL-2
[1]; H88 JC CD4, Day1, 1:8 dilution
  IFN-γ secretion (ELISA): 371.58
[1]; H88 JC CD4, Day4, 1:8 dilution
  IFN-γ secretion (ELISA): 326.06
[1]; H88 JC CD4, Day10, 1:8 dilution
  IFN-γ secretion (ELISA): 437.34
[1]; H88 JC CD4, Day12, 1:8 dilution
  IFN-γ secretion (ELISA): 505.12
[1]; H89 TC CD4, Day1, 1:8 dilution
  IFN-γ secretion (ELISA): 470.72
[1]; H89 TC CD4, Day4, 1:8 dilution
  IFN-γ secretion (ELISA): 547.61
[1]; H89 TC CD4, Day10, 1:8 dilution
  IFN-γ secretion (ELISA): 612.35
[1]; H89 TC CD4, Day12, 1:8 dilution
  IFN-γ secretion (ELISA): 622.47
[2]; H84 JC (ALS) NK supernatant
  EGF: 48.14 pg/mL
  Eotaxin: 4.6 pg/mL
  FGF2: 5.71 pg/mL
  FIT3L: 4.18 pg/mL
  Fractalkine: 44.23 pg/mL
  GCSF: 31.3 pg/mL
  GMCSF: 3.58 pg/mL
  IFNa2: 20.77 pg/mL
  IFNg: 66.78 pg/mL
  TGFa: 1.14 pg/mL
[2]; [3]
  GRO: 131.11 pg/mL
  IL-1Ra: 58.41 pg/mL
  IL-1a: 2.88 pg/mL
  IL-1b: 20.77 pg/mL
  IL-3: 1.23 pg/mL
  IL-4: 2.36 pg/mL
  IL-5: 0.98 pg/mL
  IL-6: 16.69 pg/mL
  IL-7: 46 pg/mL
  IL-8: 106.65 pg/mL
  IL-10: 12.03 pg/mL
  IL-12p40: 3.82 pg/mL
  IL-12p70: 3.28 pg/mL
  IL-13: 3.58 pg/mL
  IL-15: 2.05 pg/mL
  IL-17a: 1.91 pg/mL
  IP-10: 88.6 pg/mL
  L-2: 5630 pg/mL
  MCP1: 68.56 pg/mL
  MCP3: 5 pg/mL
  MDC: 4.9 pg/mL
  MIP1a: 144.7 pg/mL
  MIP1b: 356.57 pg/mL
  PDGF-AB/BB: 299.25 pg/mL
  PDGFaa: 35.16 pg/mL
  Rantes: 1949 pg/mL
  TNFa: 32.7 pg/mL
  TNFb: 2.71 pg/mL
  VEGF: 117.33 pg/mL
  sCD40: 15.53 pg/mL
[2]; [4]
  EGF: 90.93 pg/mL
  Eotaxin: 4.95 pg/mL
  FGF2: 5.11 pg/mL
  FIT3L: 4.6 pg/mL
  Fractalkine: 37.25 pg/mL
  GCSF: 19.59 pg/mL
  GMCSF: 3.22 pg/mL
  IFNa2: 13.08 pg/mL
  IFNg: 11.06 pg/mL
  TGFa: 1.09 pg/mL
[2]; [5]
  GRO: 101.06 pg/mL
  IL-1Ra: 56.84 pg/mL
  IL-1a: 2.01 pg/mL
  IL-1b: 2.85 pg/mL
  IL-3: 1.15 pg/mL
  IL-4: 2.48 pg/mL
  IL-5: 1.14 pg/mL
  IL-6: 3.22 pg/mL
  IL-7: 4.9 pg/mL
  IL-8: 20.47 pg/mL
  IL-9: 8.45 pg/mL
  IL-10: 3.82 pg/mL
  IL-12p40: 3.82 pg/mL
  IL-12p70: 2.61 pg/mL
  IL-13: 3.82 pg/mL
  IL-15: 1.9 pg/mL
  IL-17a: 2 pg/mL
  IP-10: 157.61 pg/mL
  L-2: 5645 pg/mL
  MCP1: 52.33 pg/mL
  MCP3: 4.26 pg/mL
  MDC: 4.9 pg/mL
  MIP1a: 144.7 pg/mL
  MIP1b: 475.47 pg/mL
  PDGF-AB/BB: 517.51 pg/mL
  PDGFaa: 42.99 pg/mL
  Rantes: 2913 pg/mL
  TNFa: 10.33 pg/mL
  TNFb: 2.85 pg/mL
  VEGF: 118.96 pg/mL
  sCD40: 8.91 pg/mL
[2]; [6]
  GCSF: 2.94 pg/mL
  IL-6: 42.5 pg/mL
  IL-17A: 2.34 pg/mL
  Rantes: 859.54 pg/mL
  TNFa: 22.64 pg/mL
[2]; [7]
  GCSF: 2.37 pg/mL
  IL-6: 21.79 pg/mL
  IL-17A: 2.38 pg/mL
  Rantes: 1944 pg/mL
  TNFa: 19.74 pg/mL
[2]; [8]
  GCSF: 2.51 pg/mL
  IL-6: 3.5 pg/mL
  IL-17A: 2.3 pg/mL
  Rantes: 5684 pg/mL
  TNFa: 7.42 pg/mL

Source: patent US20240245770A1, “COMPOSITIONS AND METHODS FOR TREATING NEUROMUSCULAR DISORDERS” (The Regents of the University of California, priority 2019, published 2024)
